This passage reports Ki results from article PMC7072329, “Discovery of Kynurenines Containing Oligopeptides as Potent Opioid Receptor Agonists” (Biomolecules, 2020).

The target in the test is δ-opioid receptor (rat (endogenous in rat brain)) (UniProt P33533). Description: radioligand binding; displacement of [^3H]Ile^5,6Delt II from rat brain membrane homogenate by unlabelled ligand (10^-10 to 10^-5 M); 50 mM Tris-HCl pH 7.4, 35 °C, 45 min; non-specific binding with 10 μM naloxone; IC50 converted into Ki by Cheng-Prusoff.

Ile^5,6-deltorphine II (peptide) showed a Ki of 8.85 nM.

What is called Ki is the equilibrium dissociation constant of an inhibitor or competing ligand from its target. A high value points to weaker binding.
